Measured values: paper PMC8709454, “Enhanced Skin Delivery of Therapeutic Peptides Using Spicule-Based Topical Delivery Systems” (Pharmaceutics, 2021)

Settings: FITC-INS 0.1 mg/mL, mean ± SD; for deposition of FITC-INS in deep skin layers (dermis and receptor): 200 μL, occlusive; for transdermal flux of FITC-INS: porcine skin, PBS pH 7.4, 37 °C

Fluorescein isothiocyanate insulin [FITC-INS]
deposition of FITC-INS in deep skin layers (dermis and receptor) (Dermaroller 200 μm (DR) treatment 2 min, Franz cell, receptor PBS pH 7.4, 37 °C, fluorescence): 3.4 ± 0.7% | transdermal flux of FITC-INS (Dermaroller (DR) treatment, Franz cell, fluorescence): 28.1 ± 5.8 ng/cm^2/h | deposition of FITC-INS in deep skin layers (dermis and receptor) (SC peeling treatment (tape-stripped 30 times), Franz cell, receptor PBS pH 7.4, 37 °C, fluorescence): 63.2 ± 1.1% | deposition of FITC-INS in deep skin layers (dermis and receptor) (SHS treatment (massaged 2 min), Franz cell, receptor PBS pH 7.4, 37 °C, fluorescence): 54.8 ± 3.9% | transdermal flux of FITC-INS (SHS treatment, Franz cell, fluorescence): 457.0 ± 32.3 ng/cm^2/h | deposition of FITC-INS in deep skin layers (dermis and receptor) (passive penetration, Franz cell 1.77 cm^2, receptor PBS pH 7.4 0.2 M, 37 °C, 600 rpm, fluorescence 495/525 nm): 0.6 ± 0.3% | transdermal flux of FITC-INS (passive penetration, Franz cell, fluorescence): 5.0 ± 2.2 ng/cm^2/h

Where two headings read alike, the source gives them in different places.
